Assay results taken from patent publication US20140038974A1, “Compositions and Methods for Eye Whitening” (Eye Therapies, LLC, priority 2009, published 2014).

Test: Log P (Table 1)
Assay type: physicochemical

guanfacine
Log P: 1.00
